# Data reported in PubChem BioAssay AID1527 (The Scripps Research Institute Molecular Screening Center, 2009).
# Only a part is listed here, and it is no random draw. Active and inactive are the calls of the source.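 The calls were made as follows: active = inhibition above the mean of all tested compounds plus 3 SD, cutoff set per screening run (cut at about 7.5% in these data); inactive = the rest.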
# Test system: VIM-2 metallo-beta-lactamase (Pseudomonas aeruginosa)
# Assay: inhibition of VIM-2 nitrocefin hydrolysis – biochemical, epi-absorbance readout, Pseudomonas aeruginosa enzyme, primary screen (AID 1527);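 also: red hydrolysis product quenches plate fluorescence so inhibitors raise well fluorescence; 0% = enzyme with DMSO and 100% = DMSO without enzyme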
# Conditions: purified VIM-2, nitrocefin hydrolysis, epi-absorbance fluorescence; at 5.6 µM; active compounds read high
row,Structure (SMILES),inhibition
1,CCOC(=O)c1ccc(NP(C)(=O)Oc2ccc(OC)cc2)cc1 (stereo not given),inactive: -0.29%
2,CCOP(C)(=S)SCC(=O)NC(C)C(=O)O (stereo not given),inactive: -1.4%
3,CP(=O)(Nc1ccccn1)Oc1ccc(Cl)cc1 (stereo not given),inactive: -2.23%
4,CP(=O)(Oc1ccccc1)OC(c1ccccc1)C(F)(F)F (stereo not given),inactive: -1.85%
5,Cc1cccc(C)c1OP(C)(=O)Nc1ccc(SC(F)(F)F)cc1 (stereo not given),inactive: -1.22%
6,CP(=O)(Nc1ccc(SC(F)(F)F)cc1)Oc1ccc(Cl)cc1 (stereo not given),inactive: -4.61%
7,Cc1cc(C)cc(OP(C)(=O)Nc2ccc(SC(F)(F)F)cc2)c1 (stereo not given),inactive: -2.26%
8,CCc1ccc(OP(C)(=O)N2CCN(c3ccc([N+](=O)[O-])cc3)CC2)cc1 (stereo not given),inactive: -2.37%
9,CP(=O)(NC(=O)Nc1ccccc1)Oc1ccccc1 (stereo not given),inactive: -0.41%
10,CP(=S)(Nn1cnnc1)Oc1ccccc1 (stereo not given),inactive: -3.41%
11,CP(=O)(Nc1ccccc1Br)Oc1ccccc1 (stereo not given),inactive: -2.77%
12,COc1ccccc1OP(C)(=O)Nc1ccccc1 (stereo not given),inactive: -2.55%
13,Cc1ccc(NP(C)(=O)Oc2ccccc2)c(C)c1 (stereo not given),inactive: -3.28%
14,COc1ccccc1OP(C)(=O)Nc1ccc(C)cc1 (stereo not given),inactive: -1.01%
15,CCOC(=O)c1ccc(NP(C)(=O)Oc2ccccc2)cc1 (stereo not given),inactive: -1.49%
16,Cc1cc(C)cc(OP(C)(N)=O)c1 (stereo not given),inactive: -1.99%
17,COc1ccc(OP(C)(=O)Nc2cccc(F)c2)cc1 (stereo not given),inactive: -5.11%
18,COc1ccccc1OP(C)(=O)Nc1cc(Cl)ccc1C (stereo not given),inactive: -0.33%
19,O=[N+]([O-])c1ccc2c(c1)C=Nc1ccccc1O2,inactive: 0.68%
20,Cc1cccc(C)c1OP(C)(N)=O (stereo not given),inactive: 0.42%

row,Structure (SMILES),inhibition
1,CC(C)(C)c1ccc(OP(C)(=O)Nc2ccc(SC(F)(F)F)cc2)cc1 (stereo not given),inactive: -1.85%
2,CCN(CC)CCCOC(=O)C(O)(c1ccccc1)c1ccccc1,inactive: -1.91%
3,Cc1ccc(C)c(NP(C)(=O)Oc2ccccc2)c1 (stereo not given),inactive: -3.45%
4,CP(=O)(Nc1cccc(Br)c1)Oc1ccccc1 (stereo not given),inactive: -4.5%
5,Cc1cc(C)cc(OP(C)(=O)Nc2ccccn2)c1 (stereo not given),inactive: -0.44%
6,COc1ccccc1OP(C)(=O)Nc1cccc(Br)c1 (stereo not given),inactive: -2.29%
7,CCOC(=O)c1ccc(NP(C)(=O)Oc2cc(C)cc(C)c2)cc1 (stereo not given),inactive: -0.09%
8,Cc1cc(C)cc(OP(C)(=O)Nc2ccc(C)cc2C)c1 (stereo not given),inactive: -4.11%
9,CC1=NCCc2c1[nH]c1ccccc21.O=[N+]([O-])c1cc([N+](=O)[O-])c(O)c([N+](=O)[O-])c1,inactive: -1.11%
10,O=C(O)c1cccc(Nc2c([N+](=O)[O-])cc([N+](=O)[O-])cc2[N+](=O)[O-])c1,inactive: 4.51%
11,COc1ccccc1OP(C)(=O)Nc1c(C)cccc1C (stereo not given),inactive: -1.87%
12,CN1CCCCC1COC(=O)C1(O)c2ccccc2CCc2ccccc21 (stereo not given),inactive: -1.57%
13,CP(=O)(Nc1ccc(SC(F)(F)F)cc1)Oc1ccccc1 (stereo not given),inactive: -1.5%
14,CCCOc1ccc(NP(C)(=O)Oc2ccc(Cl)cc2)cc1 (stereo not given),inactive: -0.17%
15,CCOC(=O)C(CC)C1=NC(C)(C)Cc2ccccc21.O=[N+]([O-])c1cc([N+](=O)[O-])c(O)c([N+](=O)[O-])c1 (stereo not given),inactive: -2.4%
16,O=[N+]([O-])c1cc([N+](=O)[O-])c(Nc2nnnn2CCO)c([N+](=O)[O-])c1,inactive: -1.91%
17,Cc1nc2ccc3ccccc3c2s1.O=[N+]([O-])c1cc([N+](=O)[O-])c(O)c([N+](=O)[O-])c1,inactive: -0.06%
18,O=[N+]([O-])c1cc([N+](=O)[O-])c(-n2nnc3ccccc32)c([N+](=O)[O-])c1,inactive: -2.44%
19,CP(=O)(Nc1ccc2c(c1)OCCO2)Oc1ccccc1 (stereo not given),inactive: -0.89%
20,Cc1ccccc1NP(C)(=O)Nc1ccccc1C,inactive: -3.36%

row,Structure (SMILES),inhibition
1,CP(=O)(Nc1ccc(SC(F)(F)F)cc1)Oc1ccc(F)cc1 (stereo not given),inactive: -0.14%
2,CCOP(C)(=S)SCC(=O)NC(C)(CC)C(=O)O (stereo not given),inactive: -3.46%
3,O=[N+]([O-])c1ccc(OP2(=O)COCCO2)cc1 (stereo not given),inactive: -2.8%
4,Cc1cc(-c2cccc3ccccc23)c(C)cn1.O=[N+]([O-])c1cc([N+](=O)[O-])c(O)c([N+](=O)[O-])c1,inactive: -2.22%
5,O=[N+]([O-])c1cc([N+](=O)[O-])c(NCC2CCS(=O)(=O)C2)c([N+](=O)[O-])c1 (stereo not given),inactive: -1.79%
6,COc1ccc(OP(C)(=O)Nc2cccc(Br)c2)cc1 (stereo not given),inactive: -0.73%
7,CN(C)CCOC(=O)C(O)(c1ccccc1)C1CCCCC1 (stereo not given),inactive: -3.08%
8,COc1ccc(NP(C)(=O)Oc2ccccc2OC)cc1 (stereo not given),inactive: -2.27%
9,CCN(CC)CCCOC(=O)C(O)(c1ccccc1)C1CCCCC1 (stereo not given),inactive: -3.43%
10,CP(=O)(Nc1ccccc1)Oc1ccc(F)cc1 (stereo not given),inactive: 0.44%
11,CCCCCOc1ccc(NP(C)(=O)Oc2ccc(Cl)cc2Cl)cc1 (stereo not given),inactive: 0.57%
12,O=[N+]([O-])c1cc([N+](=O)[O-])c(OC2CCCCC2O)c([N+](=O)[O-])c1 (stereo not given),inactive: -2.96%
13,CCOC(=O)c1ccc(NP(C)(=O)Oc2ccc(F)cc2)cc1 (stereo not given),inactive: -4.29%
14,COc1ccc(OP(C)(=O)Nc2ccc(SC(F)(F)F)cc2)cc1 (stereo not given),inactive: 0.3%
15,O=C(OC1CN2CCC1CC2)c1ccc([N+](=O)[O-])cc1 (stereo not given),inactive: -2.45%
16,O=C(OCCN1CCN(CCOCc2ccccc2)CC1)C(O)(c1ccccc1)c1ccccc1,inactive: -0.05%
17,CP(=O)(Nc1ccccc1F)Oc1ccccc1 (stereo not given),inactive: -0.6%
18,CC(C)c1ccc(OP(C)(=O)Nc2ccc(SC(F)(F)F)cc2)cc1 (stereo not given),inactive: -0.42%
19,O=[N+]([O-])c1cc([N+](=O)[O-])c(Nc2ccccn2)c([N+](=O)[O-])c1,inactive: -1.04%
20,Cc1c(NP(C)(=O)Oc2ccc(C(C)C)cc2)c(=O)n(-c2ccccc2)n1C (stereo not given),inactive: -0.6%
